According to US7087246B2, “Controlled release preparation of insulin and its method” (Mi Tech Company Limited, priority 2000, dated 2006):

Conditions: 0.1 N acetic solution (pH 2.0)

insulin
insulin dissolved up to (solubility): approximately 254 IU/0.3 ml
